# This is a selection; strong and weak results do not stand in their true shares. Some salts and complexes are drawn in separate pieces, as the source files them; their charges need not balance. Calls of active or inactive are those of the source.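 Rule for the calls: active = activation above the run's mean over test compounds plus 3 SD (cut at about 23% in these data); inactive = the rest.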
# Sequences of proteins named here, by UniProt entry; tags and fusion partners are left off.
# UniProt P08912, whole entry: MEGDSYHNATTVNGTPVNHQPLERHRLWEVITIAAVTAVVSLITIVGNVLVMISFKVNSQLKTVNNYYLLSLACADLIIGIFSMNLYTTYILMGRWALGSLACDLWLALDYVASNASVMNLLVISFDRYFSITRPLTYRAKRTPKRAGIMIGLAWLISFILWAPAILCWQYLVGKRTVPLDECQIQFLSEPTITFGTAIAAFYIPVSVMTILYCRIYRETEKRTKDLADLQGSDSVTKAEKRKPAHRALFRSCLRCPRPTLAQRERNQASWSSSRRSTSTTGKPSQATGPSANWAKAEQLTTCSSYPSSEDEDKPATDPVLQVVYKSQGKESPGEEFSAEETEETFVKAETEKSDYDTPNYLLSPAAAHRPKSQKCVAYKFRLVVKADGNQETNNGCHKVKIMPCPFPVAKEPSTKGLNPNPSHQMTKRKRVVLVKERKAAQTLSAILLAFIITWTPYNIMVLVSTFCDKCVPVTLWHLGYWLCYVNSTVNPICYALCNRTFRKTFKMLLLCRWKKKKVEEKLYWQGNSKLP
# Molecular target: Muscarinic acetylcholine receptor M5 (Homo sapiens) (UniProt P08912)
# Assay: human M5 muscarinic receptor agonists, primary screen, CHO-K1 cells, Fluo-8 calcium fluorescence (AID 624037);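 note: signal is peak over basal fluorescence ratio across the kinetic read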
# Conditions: CHO-K1 hM5 cells, at 3 µM, stronger effect = higher value, 0% DMSO wells, 100% maximal acetylcholine response
row,SMILES,activation
1,O=C(OC1CN2CCC1CC2)c1ccc([N+](=O)[O-])cc1 (stereo not drawn),inactive: -13.8%
2,O=C(OCCN1CCN(CCOCc2ccccc2)CC1)C(O)(c1ccccc1)c1ccccc1,inactive: -6.24%
3,COc1ccc2c(c1O)-c1c(O)c(OC)cc3c1[C@H](C2)[N+](C)(C)CC3.O=[N+]([O-])c1cc([N+](=O)[O-])c([O-])c([N+](=O)[O-])c1[O-],inactive: 0.32%
4,O=[N+]([O-])c1cc([N+](=O)[O-])c(Nc2ccc(Cl)cc2)c([N+](=O)[O-])c1,inactive: 6.76%
5,CP(=O)(Nc1ccccc1F)Oc1ccccc1 (stereo not drawn),inactive: 1.6%
6,CC(C)c1ccc(OP(C)(=O)Nc2ccc(SC(F)(F)F)cc2)cc1 (stereo not drawn),inactive: -7.31%
7,Cc1c([N+](=O)[O-])cc([N+](=O)[O-])c(Br)c1[N+](=O)[O-],inactive: 2.84%
8,CCN(CC)CCCOC(=O)C(O)(c1ccccc1)C1CCCCC1 (stereo not drawn),inactive: -12.9%
9,CP(=O)(Nc1ccccc1)Oc1ccc(F)cc1 (stereo not drawn),inactive: -2.8%
10,O=[N+]([O-])c1cc([N+](=O)[O-])c(OC2CCCCC2O)c([N+](=O)[O-])c1 (stereo not drawn),inactive: 1.84%
11,CCCCCOc1ccc(NP(C)(=O)Oc2ccc(Cl)cc2Cl)cc1 (stereo not drawn),inactive: 3.87%
12,CCN(CC)CCCNc1ccccc1[N+](=O)[O-].O=[N+]([O-])c1cc([N+](=O)[O-])c(O)c([N+](=O)[O-])c1,inactive: -6.82%
13,CCOC(=O)c1ccc(NP(C)(=O)Oc2ccc(F)cc2)cc1 (stereo not drawn),inactive: 3.87%
14,COc1ccc(OP(C)(=O)Nc2ccc(SC(F)(F)F)cc2)cc1 (stereo not drawn),inactive: -9.4%
15,O=[N+]([O-])c1ccc(OP2(=O)COCCO2)cc1 (stereo not drawn),inactive: 0.35%
16,O=[N+]([O-])c1cc([N+](=O)[O-])c(NCC2CCS(=O)(=O)C2)c([N+](=O)[O-])c1 (stereo not drawn),inactive: -0.92%
17,Cc1cc(-c2cccc3ccccc23)c(C)cn1.O=[N+]([O-])c1cc([N+](=O)[O-])c(O)c([N+](=O)[O-])c1,inactive: -10.2%
18,Cc1c(C(c2ccc3c(c2)OCO3)c2c(C)n(C)n(-c3ccccc3)c2=O)c(=O)n(-c2ccccc2)n1C.O=[N+]([O-])c1cc([N+](=O)[O-])c(O)c([N+](=O)[O-])c1,inactive: -4.33%
19,COc1ccc(OP(C)(=O)Nc2cccc(Br)c2)cc1 (stereo not drawn),inactive: 3.14%
20,CN(C)C1(CNC(=O)c2ccc(Cl)c(S(N)(=O)=O)c2)CCCCC1,inactive: -2.23%

row,SMILES,activation
1,CN(C)CCOC(=O)C(O)(c1ccccc1)C1CCCCC1 (stereo not drawn),inactive: -6.84%
2,COc1ccc(NP(C)(=O)Oc2ccccc2OC)cc1 (stereo not drawn),inactive: -3.24%
3,CP(=O)(Nc1ccc2c(c1)OCCO2)Oc1ccccc1 (stereo not drawn),inactive: -3.02%
4,Cc1ccccc1NP(C)(=O)Nc1ccccc1C,inactive: -0.69%
5,O=[N+]([O-])c1cc([N+](=O)[O-])c(C(F)(F)F)c([N+](=O)[O-])c1O,inactive: 0.41%
6,CP(=O)(Nc1ccc(SC(F)(F)F)cc1)Oc1ccc(F)cc1 (stereo not drawn),inactive: 0.49%
7,CCOP(C)(=S)SCC(=O)NC(C)(CC)C(=O)O (stereo not drawn),inactive: -1.42%
8,CC(C)(C)c1ccc(OP(C)(=O)O)cc1,inactive: 1.23%
9,COc1ccccc1OP(C)(=O)Nc1ccccc1Br (stereo not drawn),inactive: -4.08%
10,CP(=O)(Nc1ccc(Cl)cc1)Oc1ccc(F)cc1 (stereo not drawn),inactive: 0.44%
11,CN(C)C(=O)c1c([N+](=O)[O-])cc([N+](=O)[O-])cc1[N+](=O)[O-],inactive: -2.21%
12,CCN(CC)CC(O)COC(=O)C(O)(c1ccccc1)C1CCCCC1 (stereo not drawn),inactive: -16.6%
13,COc1ccc(OP(C)(=O)Nc2ccc(Br)cc2)cc1 (stereo not drawn),inactive: -2.02%
14,COc1ccccc1OP(C)(=O)Nc1c(C)n(C)n(-c2ccccc2)c1=O (stereo not drawn),inactive: -0.2%
15,O=C(OCCCN1CCCC1)C(O)(c1ccccc1)C1CCCCC1 (stereo not drawn),inactive: -19.7%
16,CP(=O)(Oc1ccccc1)N1CCOC1=O (stereo not drawn),inactive: -3.96%
17,CCc1ccc(OP(C)(=O)Nc2cccnc2)cc1 (stereo not drawn),inactive: -5.58%
18,CCOC(=O)c1ccc(NP(C)(=O)Oc2ccc(Cl)cc2)cc1 (stereo not drawn),inactive: -2.47%
19,CP(=O)(OC12CC3CC(CC(C3)C1)C2)OC12CC3CC(CC(C3)C1)C2,inactive: 8.12%
20,CP(=O)(OCCOc1ccccc1)OCCOc1ccccc1,inactive: 0.18%

row,SMILES,activation
1,CP(=O)(Nc1ccc(Cl)cc1Cl)Oc1ccccc1 (stereo not drawn),inactive: 0.52%
2,CCCCCCCCCCCCCCCC1C[N+](C)(C)CCOP(C)(=O)O1 (stereo not drawn),inactive: -4.31%
3,O=C1C(O)=C([N+](=O)[O-])C(=O)C(O)=C1[N+](=O)[O-],inactive: 0.16%
4,Cc1cc(C)cc(OP(C)(=O)Nc2cccc(C(F)(F)F)c2)c1 (stereo not drawn),inactive: -3.54%
5,COc1ccccc1OP(C)(=O)Nc1ccc(C)c(C)c1 (stereo not drawn),inactive: 1.11%
6,COc1ccc(OP(C)(=O)Nc2ccccc2Br)cc1 (stereo not drawn),inactive: -1.76%
7,O=[N+]([O-])c1cc([N+](=O)[O-])c(Nc2ccccn2)c([N+](=O)[O-])c1,inactive: -0.3%
8,Cc1c(NP(C)(=O)Oc2ccc(C(C)C)cc2)c(=O)n(-c2ccccc2)n1C (stereo not drawn),inactive: -1.42%
9,CP(=O)(Nc1ccccn1)Oc1ccccc1 (stereo not drawn),inactive: 1.42%
10,COc1ccccc1OP(C)(=O)Nc1ccc(C)cc1C (stereo not drawn),inactive: 0.76%
11,CCc1ccc(OP(C)(=O)O)cc1,inactive: 2.97%
12,COc1ccccc1OP(C)(=O)Nc1ccc(Br)cc1 (stereo not drawn),inactive: 1.99%
13,COc1ccc(OP(C)(=O)Nc2ccccn2)cc1 (stereo not drawn),inactive: 0.78%
14,CN(C)CCOC(=O)C(O)(c1ccccc1)C1CCCC1 (stereo not drawn),inactive: -6.57%
15,COc1ccccc1-c1ccccn1.O=[N+]([O-])c1cc([N+](=O)[O-])c(O)c([N+](=O)[O-])c1,inactive: 1.35%
16,CCN(CC)CCCOC(=O)C(O)(c1ccccc1)c1ccccc1,inactive: -15.3%
17,COc1ccccc1OP(C)(=O)Nc1ccc(C)cc1 (stereo not drawn),inactive: 2.15%
18,Cc1ccc(NP(C)(=O)Oc2ccccc2)c(C)c1 (stereo not drawn),inactive: -3.88%

# Source: PubChem BioAssay AID624037 (The Scripps Research Institute Molecular Screening Center, 2012)
